Ab-14 heavy chain CDR variants: yeast mating affinities

Source: Engelhart et al. 2022 (doi:10.1038/s41597-022-01779-4), MIT Lincoln Laboratory and A-Alpha Bio; data file from the FLAb repository.

Target: peptide PDVDLGDISGINAS, taken from heptad repeat 2 (HR2) of SARS-CoV-2 spike.

The variants keep the light chain, the linker and the frameworks of Ab-14 (scFv order VH, a (GGGGS)3 linker, VL).
VH: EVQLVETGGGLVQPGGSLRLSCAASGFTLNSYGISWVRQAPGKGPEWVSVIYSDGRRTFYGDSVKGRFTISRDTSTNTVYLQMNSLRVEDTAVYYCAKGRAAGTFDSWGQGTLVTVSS
VL: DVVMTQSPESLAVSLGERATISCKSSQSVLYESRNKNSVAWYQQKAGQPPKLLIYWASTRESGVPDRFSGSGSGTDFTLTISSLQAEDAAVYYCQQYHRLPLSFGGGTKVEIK

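Phage display of a naive human antibody library on the peptide gave the parent. AAYL49 was designed without a model: most single CDR substitutions and a random sample of double and triple ones. AlphaSeq pools MATa yeast showing the antibodies with MATalpha yeast showing the peptide. Pairs that bind mate more often; barcode pairs of the diploids are counted by sequencing. Read counts were normalised to the haploid input and turned into Kd by a linear fit to BCL2-family pairs of known affinity, for each replicate. Each pool was mated in three replicate cultures.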

Changes read parent residue, position, new residue, counted from the first residue of the VH shown.
Scale: log10 of Kd in nM, estimated from mating counts; low values are strong binders.
A mean of the replicates is given; it leaves out those without a signal.
Where no diploid with the target was found in any replicate, the entry reads "nd": below detection, most likely a poor binder, though not proof of it.

changes	mean log10 Kd (nM)	seen in	control signals
F27E S31K	0.73	3/3	3/9
L29E N30M R100W	4.47	1/3	2/9
N30F S35T K65V	3.86	1/3	1/9
Y32F R56C G99Y	nd	0/3	2/9
V50C D54Q G99A	nd	0/3	0/9
G33N D54Q A102I	5.17	1/3	3/9
S31C Y32M K65Q	4.52	1/3	4/9
Y52L R100W S107V	nd	0/3	0/9
Y52I T58L Y60K	nd	0/3	0/9
S31C D62H	2.99	1/3	1/9
Y32M R100M S107D	nd	0/3	1/9
L29N R56K	nd	0/3	0/9
R57F K65V F105Q	5.13	1/3	4/9
D54A T58Y V64C	nd	0/3	0/9
Y32L I51H A102E	4.23	3/3	2/9
S31G I34Y V64E	nd	0/3	0/9
L29A A102D	nd	0/3	4/9
I51N G55A D106A	nd	0/3	0/9
V50L I51N K65Y	nd	0/3	3/9
K65R G99A A102Y	nd	0/3	0/9
F59V R100T T104H	4.92	2/3	4/9
N30D I34R D62N	nd	0/3	0/9
F27E T28S Y60T	3.69	1/3	1/9
K65M A102L G103K	nd	0/3	0/9
Y52Q S53P D54W	nd	0/3	1/9
G55N G61C S107Y	4.51	2/3	0/9
N30S R100D	nd	0/3	0/9
G61K D62S T104Q	3.17	1/3	0/9
D62G K65V R100I	nd	0/3	0/9
G26Y A101E T104L	nd	0/3	0/9
F27W G61R A102I	3.41	3/3	0/9
T28C S53D D62M	3.86	2/3	2/9
K65T T104P S107R	2.56	3/3	3/9
G26A N30R S63W	nd	0/3	0/9
T28P L29T K65M	6.39	1/3	3/9
S35Q F59G	nd	0/3	1/9
F27C Y60Q	nd	0/3	0/9
N30M G99V A102C	2.75	3/3	3/9
I51L R57V T58C	5.27	1/3	5/9
S35D R100D	nd	0/3	0/9
F27V I51L T58A	2.83	3/3	1/9
L29D Y32M T104Q	3.70	1/3	0/9
F27S G99C A102F	2.76	1/3	2/9
N30Q V50Y G55M	4.50	1/3	0/9
L29T D62R	4.03	1/3	2/9
N30E G61P F105Y	1.28	3/3	0/9
S63A R100A F105C	nd	0/3	0/9
G33V I51Y T58H	3.98	3/3	7/9
F27N G61P D106Y	nd	0/3	2/9
G99W F105D	1.52	3/3	3/9
N30I D54F R57K	nd	0/3	0/9
Y52C F105M	5.56	1/3	3/9
F27M D54G G55A	4.91	1/3	1/9
G26A S35H R57L	nd	0/3	0/9
S35E G61H	nd	0/3	0/9
F27L G103L S107G	2.46	3/3	1/9
S31P D54N	nd	0/3	0/9
T28R R100P A101D	2.96	1/3	0/9
G33E D54Q F105E	nd	0/3	0/9
T58S G99A A102S	3.31	3/3	5/9
F27R T104Q F105D	nd	0/3	0/9
T28Q V50H I51T	nd	0/3	0/9
S35N T58S K65F	4.26	2/3	4/9
L29V V50D G61P	nd	0/3	1/9
N30C I51T G103R	nd	0/3	1/9
S31T Y32N R57W	nd	0/3	0/9
V50H R57C	nd	0/3	1/9
T28G V50F F105P	nd	0/3	0/9
S31E Y60S	1.06	3/3	1/9
S31D I51G T58G	3.58	1/3	3/9
G26I I51L	3.35	1/3	1/9
I34G F59I Y60H	nd	0/3	2/9

Top 6 of the variants detected in all replicates, tightest first:

{"changes": "F27E S31K", "mean log10 Kd (nM)": "0.73", "seen in": "3/3", "control signals": "3/9"}
{"changes": "S31E Y60S", "mean log10 Kd (nM)": "1.06", "seen in": "3/3", "control signals": "1/9"}
{"changes": "N30E G61P F105Y", "mean log10 Kd (nM)": "1.28", "seen in": "3/3", "control signals": "0/9"}
{"changes": "G99W F105D", "mean log10 Kd (nM)": "1.52", "seen in": "3/3", "control signals": "3/9"}
{"changes": "F27L G103L S107G", "mean log10 Kd (nM)": "2.46", "seen in": "3/3", "control signals": "1/9"}
{"changes": "K65T T104P S107R", "mean log10 Kd (nM)": "2.56", "seen in": "3/3", "control signals": "3/9"}

Parent in this assay: reference entry 0.65, copy in this library 4.11 (one replicate of three).
Background: pairings of library AAYL49 with three empty control strains gave a value in 15% of cases (median 4.06, 5th percentile 2.83). Values in that range, when seen in few replicates, are hard to tell from nonspecific mating. The control count says in how many pairings with the empty strains this scFv gave a signal.